Measured values taken from PMC8896178 (mAbs, 2022).

By UniProt entry, the sequences of proteins in these tests, tags left out. Residues count along the entry.
UniProt Q15116, 25-288: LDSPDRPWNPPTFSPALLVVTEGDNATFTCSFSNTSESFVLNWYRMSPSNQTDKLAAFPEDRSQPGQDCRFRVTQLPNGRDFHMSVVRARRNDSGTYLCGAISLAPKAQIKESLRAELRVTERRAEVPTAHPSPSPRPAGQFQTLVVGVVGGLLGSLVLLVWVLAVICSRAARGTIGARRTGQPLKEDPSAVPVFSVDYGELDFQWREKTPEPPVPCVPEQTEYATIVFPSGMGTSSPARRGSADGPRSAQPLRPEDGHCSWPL

Target: PD1 protein (human) (UniProt Q15116)
Assay: ELISA

Substance: nivolumab (Opdivo) (antibody)
- EC50: 0.27 nM
